# Membrane permeability of cyclic peptides

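Conditions beyond the assay type are not listed; see the original paper. The list need not hold all peptides of the study. Entries at the database's floor value (log10 P of -10) are not listed.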

PAMPA is the parallel artificial membrane permeability assay, which has no cells and reads passive diffusion. P is given in units of 10^-6 cm/s (from log10 values with two decimals); larger means faster passage.

structure (SMILES),PAMPA (10^-6 cm/s)
CC(=O)N1CCC[C@@H]1C(=O)N(C)[C@@H](CC(C)C)C(=O)N[C@@H]1C(=O)N[C@@H](CC(C)C)C(=O)N(C)[C@H](CC(C)C)C(=O)N(C)[C@@H](CC(C)C)C(=O)N[C@@H](C)C(=O)N[C@@H](CC(C)C)C(=O)N2CCC[C@@H]2C(=O)O[C@@H]1C,2.6
CC(=O)N1CCC[C@H]1C(=O)N(C)[C@@H](CC(C)C)C(=O)N[C@@H]1C(=O)N(C)[C@@H](CC(C)C)C(=O)N(C)[C@H](CC(C)C)C(=O)N[C@H](CC(C)C)C(=O)N[C@H](C)C(=O)N[C@@H](CC(C)C)C(=O)N2CCC[C@H]2C(=O)O[C@@H]1C,0.52
CC(=O)N1CCC[C@@H]1C(=O)N(C)[C@H](CC(C)C)C(=O)N[C@@H]1C(=O)N[C@H](CC(C)C)C(=O)N(C)[C@H](CC(C)C)C(=O)N(C)[C@H](CC(C)C)C(=O)N(C)[C@H](C)C(=O)N[C@@H](CC(C)C)C(=O)N2CCC[C@H]2C(=O)O[C@@H]1C,2
CC(=O)N1CCC[C@@H]1C(=O)N(C)[C@H](CC(C)C)C(=O)N[C@@H]1C(=O)N[C@H](CC(C)C)C(=O)N[C@@H](CC(C)C)C(=O)N(C)[C@H](CC(C)C)C(=O)N(C)[C@@H](C)C(=O)N[C@H](CC(C)C)C(=O)N2CCC[C@H]2C(=O)O[C@@H]1C,5
CC(=O)N1CCC[C@@H]1C(=O)N(C)[C@@H](CC(C)C)C(=O)N[C@@H]1C(=O)N[C@@H](CC(C)C)C(=O)N[C@H](CC(C)C)C(=O)N[C@@H](CC(C)C)C(=O)N[C@@H](C)C(=O)N[C@@H](CC(C)C)C(=O)N2CCC[C@@H]2C(=O)O[C@@H]1C,0.32
CC(=O)N1CCC[C@@H]1C(=O)N(C)[C@@H](CC(C)C)C(=O)N[C@@H]1C(=O)N(C)[C@@H](CC(C)C)C(=O)N[C@H](CC(C)C)C(=O)N[C@@H](CC(C)C)C(=O)N[C@@H](C)C(=O)N[C@H](CC(C)C)C(=O)N2CCC[C@@H]2C(=O)O[C@@H]1C,0.81
CC(=O)N1CCC[C@H]1C(=O)N[C@@H]1C(=O)N(C)[C@H](CC(C)C)C(=O)N(C)[C@@H](CC(C)C)C(=O)N(C)[C@@H](CC(C)C)C(=O)N[C@@H](CC(C)C)C(=O)N(C)[C@H](C)C(=O)N[C@@H](CC(C)C)C(=O)N2CCC[C@@H]2C(=O)O[C@@H]1C,4.8
CC(=O)N1CCC[C@H]1C(=O)N(C)[C@@H](CC(C)C)C(=O)N[C@@H]1C(=O)N(C)[C@H](CC(C)C)C(=O)N[C@H](CC(C)C)C(=O)N[C@@H](CC(C)C)C(=O)N[C@@H](C)C(=O)N[C@H](CC(C)C)C(=O)N2CCC[C@H]2C(=O)O[C@@H]1C,0.45
CC(=O)N1CCC[C@@H]1C(=O)N(C)[C@@H](CC(C)C)C(=O)N[C@@H]1C(=O)N[C@@H](CC(C)C)C(=O)N(C)[C@@H](CC(C)C)C(=O)N[C@@H](CC(C)C)C(=O)N(C)[C@@H](C)C(=O)N[C@@H](CC(C)C)C(=O)N2CCC[C@@H]2C(=O)O[C@@H]1C,5.4
CC(=O)N1CCC[C@H]1C(=O)N(C)[C@@H](CC(C)C)C(=O)N[C@@H]1C(=O)N[C@H](CC(C)C)C(=O)N[C@H](CC(C)C)C(=O)N(C)[C@H](CC(C)C)C(=O)N[C@H](C)C(=O)N[C@@H](CC(C)C)C(=O)N2CCC[C@H]2C(=O)O[C@@H]1C,0.48
CC(=O)N1CCC[C@@H]1C(=O)N(C)[C@H](CC(C)C)C(=O)N[C@@H]1C(=O)N[C@H](CC(C)C)C(=O)N(C)[C@@H](CC(C)C)C(=O)N[C@@H](CC(C)C)C(=O)N(C)[C@H](C)C(=O)N[C@H](CC(C)C)C(=O)N2CCC[C@@H]2C(=O)O[C@@H]1C,1.4
CC(=O)N1CCC[C@H]1C(=O)N(C)[C@@H](CC(C)C)C(=O)N[C@@H]1C(=O)N(C)[C@H](CC(C)C)C(=O)N[C@H](CC(C)C)C(=O)N[C@H](CC(C)C)C(=O)N[C@H](C)C(=O)N[C@H](CC(C)C)C(=O)N2CCC[C@@H]2C(=O)O[C@@H]1C,0.03
CC(=O)N1CCC[C@@H]1C(=O)N(C)[C@@H](CC(C)C)C(=O)N[C@@H]1C(=O)N(C)[C@H](CC(C)C)C(=O)N(C)[C@@H](CC(C)C)C(=O)N[C@@H](CC(C)C)C(=O)N(C)[C@H](C)C(=O)N[C@H](CC(C)C)C(=O)N2CCC[C@H]2C(=O)O[C@@H]1C,0.91
CC(=O)N1CCC[C@H]1C(=O)N(C)[C@@H](CC(C)C)C(=O)N[C@@H]1C(=O)N(C)[C@H](CC(C)C)C(=O)N[C@H](CC(C)C)C(=O)N[C@H](CC(C)C)C(=O)N[C@@H](C)C(=O)N[C@@H](CC(C)C)C(=O)N2CCC[C@H]2C(=O)O[C@@H]1C,0.34
CC(=O)N1CCC[C@@H]1C(=O)N(C)[C@H](CC(C)C)C(=O)N[C@@H]1C(=O)N[C@@H](CC(C)C)C(=O)N(C)[C@@H](CC(C)C)C(=O)N(C)[C@H](CC(C)C)C(=O)N[C@@H](C)C(=O)N[C@@H](CC(C)C)C(=O)N2CCC[C@H]2C(=O)O[C@@H]1C,0.066
CC(=O)N1CCC[C@H]1C(=O)N(C)[C@H](CC(C)C)C(=O)N[C@@H]1C(=O)N[C@@H](CC(C)C)C(=O)N[C@H](CC(C)C)C(=O)N[C@H](CC(C)C)C(=O)N[C@@H](C)C(=O)N[C@H](CC(C)C)C(=O)N2CCC[C@H]2C(=O)O[C@@H]1C,0.26
CC(=O)N1CCC[C@@H]1C(=O)N(C)[C@H](CC(C)C)C(=O)N[C@@H]1C(=O)N[C@@H](CC(C)C)C(=O)N[C@H](CC(C)C)C(=O)N[C@H](CC(C)C)C(=O)N[C@@H](C)C(=O)N[C@H](CC(C)C)C(=O)N2CCC[C@@H]2C(=O)O[C@@H]1C,0.069
CC(=O)N1CCC[C@@H]1C(=O)N(C)[C@H](CC(C)C)C(=O)N[C@@H]1C(=O)N(C)[C@H](CC(C)C)C(=O)N[C@@H](CC(C)C)C(=O)N[C@H](CC(C)C)C(=O)N[C@@H](C)C(=O)N[C@H](CC(C)C)C(=O)N2CCC[C@H]2C(=O)O[C@@H]1C,0.14
CC(=O)N1CCC[C@H]1C(=O)N(C)[C@@H](CC(C)C)C(=O)N[C@@H]1C(=O)N(C)[C@H](CC(C)C)C(=O)N[C@@H](CC(C)C)C(=O)N(C)[C@@H](CC(C)C)C(=O)N(C)[C@@H](C)C(=O)N[C@H](CC(C)C)C(=O)N2CCC[C@@H]2C(=O)O[C@@H]1C,0.58
CC(=O)N1CCC[C@@H]1C(=O)N(C)[C@@H](CC(C)C)C(=O)N[C@@H]1C(=O)N(C)[C@H](CC(C)C)C(=O)N[C@@H](CC(C)C)C(=O)N(C)[C@@H](CC(C)C)C(=O)N(C)[C@@H](C)C(=O)N[C@H](CC(C)C)C(=O)N2CCC[C@H]2C(=O)O[C@@H]1C,0.68
CC(=O)N1CCC[C@H]1C(=O)N(C)[C@@H](CC(C)C)C(=O)N[C@@H]1C(=O)N(C)[C@@H](CC(C)C)C(=O)N(C)[C@@H](CC(C)C)C(=O)N[C@@H](CC(C)C)C(=O)N(C)[C@@H](C)C(=O)N[C@H](CC(C)C)C(=O)N2CCC[C@H]2C(=O)O[C@@H]1C,0.83

Extract of 3 entries:

structure (SMILES)	PAMPA (10^-6 cm/s)
CC(=O)N1CCC[C@@H]1C(=O)N(C)[C@@H](CC(C)C)C(=O)N[C@@H]1C(=O)N(C)[C@H](CC(C)C)C(=O)N(C)[C@@H](CC(C)C)C(=O)N[C@@H](CC(C)C)C(=O)N(C)[C@H](C)C(=O)N[C@H](CC(C)C)C(=O)N2CCC[C@H]2C(=O)O[C@@H]1C	0.91
CC(=O)N1CCC[C@H]1C(=O)N(C)[C@@H](CC(C)C)C(=O)N[C@@H]1C(=O)N[C@H](CC(C)C)C(=O)N[C@H](CC(C)C)C(=O)N(C)[C@H](CC(C)C)C(=O)N[C@H](C)C(=O)N[C@@H](CC(C)C)C(=O)N2CCC[C@H]2C(=O)O[C@@H]1C	0.48
CC(=O)N1CCC[C@@H]1C(=O)N(C)[C@H](CC(C)C)C(=O)N[C@@H]1C(=O)N(C)[C@H](CC(C)C)C(=O)N[C@@H](CC(C)C)C(=O)N[C@H](CC(C)C)C(=O)N[C@@H](C)C(=O)N[C@H](CC(C)C)C(=O)N2CCC[C@H]2C(=O)O[C@@H]1C	0.14

Source: CycPeptMPDB (Li et al. 2023), which took these values from Kelly et al. 2021, doi:10.1021/jacs.0c06115.